From ChEMBL document CHEMBL2346553, “Synthesis and evaluation of non-dimeric HCV NS5A inhibitors” (Bioorg Med Chem Lett, 2013)

Amino acid sequences for entries named in this document (tags omitted).
UniProt P05177, whole entry: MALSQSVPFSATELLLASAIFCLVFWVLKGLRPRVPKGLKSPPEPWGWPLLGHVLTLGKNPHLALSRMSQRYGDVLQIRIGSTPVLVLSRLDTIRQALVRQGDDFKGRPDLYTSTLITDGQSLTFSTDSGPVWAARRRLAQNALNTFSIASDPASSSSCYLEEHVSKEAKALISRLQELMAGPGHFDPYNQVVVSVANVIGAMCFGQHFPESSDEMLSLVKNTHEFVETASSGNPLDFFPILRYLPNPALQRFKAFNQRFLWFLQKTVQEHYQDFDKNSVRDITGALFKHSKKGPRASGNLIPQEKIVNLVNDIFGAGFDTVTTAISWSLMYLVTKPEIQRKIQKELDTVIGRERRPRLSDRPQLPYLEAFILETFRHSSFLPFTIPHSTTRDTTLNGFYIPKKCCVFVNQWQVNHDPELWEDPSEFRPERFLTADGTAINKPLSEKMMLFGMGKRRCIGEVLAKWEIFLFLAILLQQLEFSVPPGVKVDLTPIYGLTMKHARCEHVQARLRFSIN

Molecular target: Cytochrome P450 1A2 (Homo sapiens, UniProt P05177)
Test: Inhibition of human CYP1A2 at 3 uM
Format: ADME

With `O=c1cc(-c2ccccc2)oc2c1ccc1ccccc12` [ALPHA-NAPHTHOFLAVONE] as the compound, how does the “inhibition (INH)” value read?
Its value is greater than 93%.
